Patent publication US20200170258A1

Target: Flagellin-sensing 3 (FLS3) of tomato (tomato)
Assay: cell-based or functional assay

Binder EIHEMLQRMRELAVQAANGTYSDKDKKA (modifications not checked) [A.sp.FlgII-28] has an ROS activity in tomato leaf tissue, Average RLU value, 5 nM Flg polypeptide of 33000 RLU.
